The test system of one series is human skin fibroblasts. Put plainly: MN frequency in human skin fibroblasts (Lofti & Santelli). In kind it is cell-based. Particulars: maximum over literature cell lines exposed to colchicine.
Series [1] concerns carp (Cyprinus carpio) erythrocytes. Put plainly: in vivo MN frequency in carp erythrocytes (Gustavino 2001). Particulars: literature, individuals injected with the aneugen.
The subject of another series is KCB cells. Particulars: versus control, cell line presented herein.
In series [2] the test system is erythrocytes of the European minnow (Phoxinus phoxinus) and of the sailfin molly (Poecilia latipinna). The following applies: fish injected with 10 mg colchicine/kg body weight; background 6.25; cited from earlier work.

These results are taken from US20190113503A1 (priority 2016, published 2019).

As for `COc1cc2c(c(OC)c1OC)-c1ccc(OC)c(=O)cc1[C@@H](NC(C)=O)CC2` [colchicine], the “fold increase in MN frequency” value in the series on human skin fibroblasts is listed as ≤ 20 fold; in series [1] it was “around 5 fold”; in the series on KCB cells, 3 fold. For the same compound, in series [2], the MN frequency is 20.76%.
